From ChEMBL document CHEMBL3886638, “Heteroaryl linked quinolinyl modulators of RORγt” (2016)
pKd: −log10 of the molar value.

Amino acid sequences for entries named in this document (tags omitted). A change or cut given only in a name is not applied to a line headed by its entry.
UniProt P51449: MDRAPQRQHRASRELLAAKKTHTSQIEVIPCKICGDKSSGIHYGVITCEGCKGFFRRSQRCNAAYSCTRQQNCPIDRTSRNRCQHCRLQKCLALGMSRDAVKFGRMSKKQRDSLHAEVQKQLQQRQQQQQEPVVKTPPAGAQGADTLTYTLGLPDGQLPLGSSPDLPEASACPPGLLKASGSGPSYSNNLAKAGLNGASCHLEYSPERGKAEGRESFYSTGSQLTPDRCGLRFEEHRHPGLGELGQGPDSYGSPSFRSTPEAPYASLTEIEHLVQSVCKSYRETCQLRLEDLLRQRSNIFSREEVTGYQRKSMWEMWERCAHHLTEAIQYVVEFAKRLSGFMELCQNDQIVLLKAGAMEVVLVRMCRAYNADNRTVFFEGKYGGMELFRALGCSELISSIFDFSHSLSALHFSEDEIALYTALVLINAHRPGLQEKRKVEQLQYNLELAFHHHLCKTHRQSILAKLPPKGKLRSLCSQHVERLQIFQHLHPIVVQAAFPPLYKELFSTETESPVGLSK

Biological target: Nuclear receptor ROR-gamma (Homo sapiens, UniProt P51449)
Assay: ThermoFluor® Assay: ThermoFluor® experiments were carried out using instruments owned by Janssen Research and Discovery, L.L.C. through its acquisition of 3-Dimensional Pharmaceuticals, Inc. 1,8-ANS (Invitrogen) was used as a fluorescent dye. Protein and compound solutions are dispensed into black 384-well polypropylene PCR microplates (Abgene) and overlayed with silicone oil (1 μL, Fluka, type DC 200) to prevent evaporation. Bar-coded assay plates are robotically loaded onto a thermostatically controlled PCR-type thermal block and then heated at a typical ramp-rate of 1 °C./min for all experiments. Fluorescence was measured by continuous illumination with UV light (Hamamatsu LC6) supplied via fiber optic and filtered through a band-pass filter (380-400 nm; >60D cutoff). Fluorescence emission of the entire 384-well plate was detected by measuring light intensity using a CCD camera (Sensys, Roper Scientific) filtered to detect 500±25 nm, resulting in simultaneous and independent readings of all 384 wells. Images were collected at each temperature, and the sum of the pixel intensity in a given area of the assay plate was recorded versus temperature. Reference wells contained RORγt without compounds, and the assay conditions were as follows: 0.065 mg/mL RORγt, 60 μM 1,8-ANS, 100 mM Hepes, pH 7.0, 10 mM NaCl, 2.5 mM GSH, 0.002% Tween-20. […]

SMILES: COc1ccc(C(O)(c2ccc3nc(N(C)C)c(Oc4ccccc4)c(Cl)c3c2)c2cncn2C)cn1 (stereo unspecified)
- pKd: 8.39
